Reference: publication PMC11447181 (Nature Communications, 2024)

Amino acid sequences for entries named in this document (tags omitted). Chains listed by the source or under a name are the forms on record and can include a tag or linker.
UniProt Q9BZV2, with tags, fused parts or gaps: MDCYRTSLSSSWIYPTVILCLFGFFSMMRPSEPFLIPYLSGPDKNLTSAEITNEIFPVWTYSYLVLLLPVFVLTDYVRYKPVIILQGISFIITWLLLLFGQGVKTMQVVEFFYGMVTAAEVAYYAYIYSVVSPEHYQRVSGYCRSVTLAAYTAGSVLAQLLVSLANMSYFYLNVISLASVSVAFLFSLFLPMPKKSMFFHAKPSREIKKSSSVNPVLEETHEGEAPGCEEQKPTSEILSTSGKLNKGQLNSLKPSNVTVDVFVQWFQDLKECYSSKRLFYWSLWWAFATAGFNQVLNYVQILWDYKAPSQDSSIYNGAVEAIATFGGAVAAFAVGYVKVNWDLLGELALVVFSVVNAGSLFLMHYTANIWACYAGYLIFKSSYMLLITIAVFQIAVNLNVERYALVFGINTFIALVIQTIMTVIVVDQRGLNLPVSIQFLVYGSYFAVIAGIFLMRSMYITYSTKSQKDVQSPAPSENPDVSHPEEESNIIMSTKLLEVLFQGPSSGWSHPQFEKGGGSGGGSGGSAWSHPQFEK

How the values were obtained:
[1] = biological target: T1, hSLC19A3-wt overexpressed in Expi293F cells (Homo sapiens, UniProt Q9BZV2); assay: Mass spectrometry-based cellular thiamine-d3 uptake assay; format: cell-based; conditions: 200 μM compound, 2 μM thiamine-d3, 5 min, n = 3
T1 construct: full-length, wildtype human SLC19A3; expressed in transfected cells; host or cells: Expi293F

hSLC19A3-wt = hSLC19A3-wt (Homo sapiens, UniProt Q9BZV2); assay: nanoDSF thermal shift assay / apparent binding affinity, wildtype transporter; conditions: thermal shift screen at 20 μM and 200 μM compound

CNCCC(Oc1ccc(C(F)(F)F)cc1)c1ccccc1 (centres unmarked) [fluoxetine]
inhibition of thiamine uptake through hSLC19A3, in words [1]: only citalopram interferes with thiamine uptake | thermal shift / interaction with hSLC19A3, in words (hSLC19A3-wt): also interact with hSLC19A3
